{
  "source": "patent US8202852B2",
  "about": "“Creatine phosphate analog prodrugs, compositions and uses thereof” (XenoPort, Inc., priority 2006, dated 2012)",
  "origin": "cited, not measured here",
  "details": "ALS",
  "data": [
    {"compound": "Nc1nc2ccc(OC(F)(F)F)cc2s1", "note": "[riluzole]", "values": [
      {"measurement": "extension of survival", "result": "about three"}
    ]}
  ]
}
